In patent publication US6680367B1, “Fluorescent CRF receptor-binding peptides” (Advanced Bioconcept Company, priority 1995, dated 2004):

Target: T1, CRF receptors in rat cortex membranes (Rattus norvegicus, UniProt P35353)
T1 construct: from tissue; host or cells: rat cortex membranes
T1 sequence (P35353 24-415): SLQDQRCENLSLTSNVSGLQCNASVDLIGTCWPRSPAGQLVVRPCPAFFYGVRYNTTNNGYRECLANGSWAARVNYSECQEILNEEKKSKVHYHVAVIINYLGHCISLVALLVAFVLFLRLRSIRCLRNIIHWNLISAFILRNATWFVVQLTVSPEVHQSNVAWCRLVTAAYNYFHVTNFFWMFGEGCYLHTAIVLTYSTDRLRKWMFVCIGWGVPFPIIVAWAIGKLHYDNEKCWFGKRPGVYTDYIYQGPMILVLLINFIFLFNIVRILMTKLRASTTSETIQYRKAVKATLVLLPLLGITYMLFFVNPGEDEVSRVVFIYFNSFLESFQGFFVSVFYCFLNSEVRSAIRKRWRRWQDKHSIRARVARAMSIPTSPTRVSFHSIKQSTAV
Test: Displacement of 125I labeled Tyr0 CRF (ovine) from CRF receptors on rat cortex membranes
Conditions: read-out: IC50 (concentration at which 50% of the binding is inhibited), displacement of 125I Tyr0 CRF (ovine)
Description: Determination of IC50 for labeled peptides. […] In order to fully dissolve the peptide, the sample was reconstituted in 20 uL DMSO, vortexing well to ensure that all powder was completely dissolved, and then adding 0.48 mL of double distilled water. The stock solution was aliquoted to avoid repeated freezing and thawing of peptide. Unused aliquots were stored at −20° C. (protected from light) for maximum 24 hr.
Data for native and labeled peptides were analyzed by non-linear curve fitting. This included statistical evaluation of fit and calculation of IC50 and Ki values.

CRF (ovine)
IC50: 3.8 nM
